For two compounds, IC50 results are on record in US20240376056A1, “PHENYL ACETAMIDE BASED IL-17A MODULATORS AND USES THEREOF” (DiCE Alpha, Inc., priority 2021, published 2024).

Sequences of proteins named here, by UniProt entry; tags and fusion partners are left off. Residues count along the entry.
UniProt Q16552, 24-155 limits assumed: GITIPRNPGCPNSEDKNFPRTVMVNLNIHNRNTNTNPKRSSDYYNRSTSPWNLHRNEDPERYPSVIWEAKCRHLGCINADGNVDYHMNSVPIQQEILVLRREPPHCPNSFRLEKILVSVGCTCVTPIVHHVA

The target of this experiment is IL-17A/A (Homo sapiens, UniProt Q16552). The experiment is described as follows: HEK-Blue IL-17A/A inhibition assay (SEAP reporter). The note with it: read-out: IL-17 A/A Inhibition; HEK-Blue cells (HEK 293 expressing IL-17RA, IL-17RC, Act1); IL-17A/A stimulation; 20 hours; SEAP read at A630; 4-parameter fit. The procedure:
The HEK-Blue #NC108637 […]. Cells were grown and prepared for assays according to the manufacturer's instructions. This cell line consists of HEK 293 cells that were designed to expressed IL-17R^A, IL-17RC, and the ActI adapter molecule, the combination of which. when stimulated by IL-17A/A activates a NFtcB promoter and drives expression of a recombinant Secreted Alkaline Phosphatase (SEAP) geneprotein. Media from the cells is then added to a development reagent (Quanti-Blue Substrate, Fisher #NC971 1613), and read at A630.
Compounds were titrated in DMSO. with a top final compound concentration of 10 uM, 1 uM, or 0.3 uM, and added to the cells immediately before adding IL-17A/A (Genscript #Z03228). The cells, compound, and IL-17A/A were then incubated for 20 hours before media was removed for SEAP analysis. The resulting inhibition curve was then analyzed using Graphpad Prism 7.0, and IC50 values were determined using a 4-parameter nonlinear fit. DMSO was added to a universal final concentration of 0.1% to optimze background.

SMILES strings stand for the structures. Some results are limits rather than exact numbers.

As to `Cc1cc(NC(=O)[C@@H](NC(=O)c2nonc2C2CC2)C(C2CC2)C2CC2)c(F)cc1C(C)C(=O)N(C)CC(F)(F)F` (some centres unmarked), the IC50 was less than 0.1 µM.
As to `CCn1nccc1C(=O)N[C@H](C(=O)Nc1ccc(CC(=O)NC(C(=O)NC)C(F)(F)F)cc1F)C1CCCCCC1` (some centres unmarked), the IC50 fell in the range of 0.1 to 1 µM.
